{
  "source": "patent US9034622B2",
  "about": "“Preparation for photodynamic control of microorganisms and use thereof” (priority 2004, dated 2015)",
  "key": {"Prevotella intermedia": {"system": "Prevotella intermedia", "details": "prior to treatment <1.0 × 10^2; for bacterial count After irradiation 2: specimen removed after irradiation after rinsing out dye; for bacterial count After irradiation 1: specimen removed after irradiation with dye solution, 0.1% methylene blue + laser"}, "[1]": {"details": "coating of 200 μm, 1% methylene blue solution"}, "[2]": {"system": "Fusobacterium nucleatum ssp.", "details": "for bacterial count After irradiation 2: specimen removed after irradiation after rinsing out dye; for bacterial count After irradiation 1: specimen removed after irradiation with dye solution, 0.1% methylene blue + laser"}, "[3]": {"system": "Actinobacillus actinomycetemcom.", "details": "for bacterial count After irradiation 2: specimen removed after irradiation after rinsing out dye; for bacterial count After irradiation 1: specimen removed after irradiation with dye solution, 0.1% methylene blue + laser"}, "[4]": {"system": "Total (bacterial counts in periodontal pockets)", "details": "prior to treatment <4.2 × 10^8; for bacterial count After irradiation 2: specimen removed after irradiation after rinsing out dye; for bacterial count After irradiation 1: specimen removed after irradiation with dye solution, 0.1% methylene blue + laser"}, "Porphyromonas gingivalis": {"system": "Porphyromonas gingivalis", "details": "for bacterial count After irradiation 2: specimen removed after irradiation after rinsing out dye; for bacterial count After irradiation 1: specimen removed after irradiation with dye solution, 0.1% methylene blue + laser"}, "Treponema denticola": {"system": "Treponema denticola", "details": "for bacterial count After irradiation 2: specimen removed after irradiation after rinsing out dye; for bacterial count After irradiation 1: specimen removed after irradiation with dye solution, 0.1% methylene blue + laser"}, "Tannerella fosythensis": {"system": "Tannerella fosythensis", "details": "for bacterial count After irradiation 2: specimen removed after irradiation after rinsing out dye; for bacterial count After irradiation 1: specimen removed after irradiation with dye solution, 0.1% methylene blue + laser"}, "[5]": {"details": "Patient 1, prior to treatment <2.6 × 10^5"}, "[6]": {"details": "Patient 2, prior to treatment <3.1 × 10^5"}, "[7]": {"details": "Patient 1, prior to treatment <1.0 × 10^2"}, "[8]": {"details": "Patient 2, prior to treatment <2.7 × 10^3"}, "[9]": {"details": "Patient 1, prior to treatment <2.5 × 10^2"}, "[10]": {"details": "Patient 2, prior to treatment <4.6 × 10^4"}, "[11]": {"details": "Patient 1, prior to treatment <6.6 × 10^4"}, "[12]": {"details": "Patient 2, prior to treatment <4.7 × 10^5"}, "[13]": {"details": "Patient 1, prior to treatment <1.7 × 10^5"}, "[14]": {"details": "Patient 2, prior to treatment <6.3 × 10^5"}},
  "note": "Like-named read-outs stand apart in the source and are kept apart here.",
  "data": [
    {"substance": "methylene blue", "values": [
      {"measurement": "bacterial count After irradiation 2", "setting": "Prevotella intermedia; Patient 1", "value": "<1.0 × 10^2"},
      {"measurement": "bacterial count After irradiation 1", "setting": "Prevotella intermedia; Patient 1", "value": "<1.0 × 10^2"},
      {"measurement": "bacterial count After irradiation 2", "setting": "Prevotella intermedia; Patient 2", "value": "<1.0 × 10^2"},
      {"measurement": "bacterial count After irradiation 1", "setting": "Prevotella intermedia; Patient 2", "value": "<1.0 × 10^2"},
      {"measurement": "absorption of the light", "setting": "[1]", "value": 95, "unit": "%"},
      {"measurement": "bacterial count After irradiation 2", "setting": "[2]; [5]", "value": "<2.8 × 10^2"},
      {"measurement": "bacterial count After irradiation 1", "setting": "[2]; [5]", "value": "<4.4 × 10^3"},
      {"measurement": "bacterial count After irradiation 2", "setting": "[2]; [6]", "value": "<2.5 × 10^2"},
      {"measurement": "bacterial count After irradiation 1", "setting": "[2]; [6]", "value": "<6.2 × 10^3"},
      {"measurement": "bacterial count After irradiation 2", "setting": "[3]; [7]", "value": "<1.0 × 10^2"},
      {"measurement": "bacterial count After irradiation 1", "setting": "[3]; [7]", "value": "<1.0 × 10^2"},
      {"measurement": "bacterial count After irradiation 2", "setting": "[3]; [8]", "value": "<1.0 × 10^2"},
      {"measurement": "bacterial count After irradiation 1", "setting": "[3]; [8]", "value": "<4.5 × 10^2"},
      {"measurement": "bacterial count After irradiation 2", "setting": "[4]; Patient 1", "value": "<2.1 × 10^7"},
      {"measurement": "bacterial count After irradiation 1", "setting": "[4]; Patient 1", "value": "<2.3 × 10^8"},
      {"measurement": "bacterial count After irradiation 2", "setting": "[4]; Patient 2", "value": "<1.4 × 10^7"},
      {"measurement": "bacterial count After irradiation 1", "setting": "[4]; Patient 2", "value": "<4.8 × 10^7"},
      {"measurement": "bacterial count After irradiation 2", "setting": "Porphyromonas gingivalis; [9]", "value": "<1.5 × 10^2"},
      {"measurement": "bacterial count After irradiation 1", "setting": "Porphyromonas gingivalis; [9]", "value": "<1.5 × 10^2"},
      {"measurement": "bacterial count After irradiation 2", "setting": "Porphyromonas gingivalis; [10]", "value": "<2.9 × 10^2"},
      {"measurement": "bacterial count After irradiation 1", "setting": "Porphyromonas gingivalis; [10]", "value": "<1.3 × 10^3"},
      {"measurement": "bacterial count After irradiation 2", "setting": "Treponema denticola; [11]", "value": "<2.5 × 10^2"},
      {"measurement": "bacterial count After irradiation 1", "setting": "Treponema denticola; [11]", "value": "<6.6 × 10^3"},
      {"measurement": "bacterial count After irradiation 2", "setting": "Treponema denticola; [12]", "value": "<2.5 × 10^2"},
      {"measurement": "bacterial count After irradiation 1", "setting": "Treponema denticola; [12]", "value": "<4.1 × 10^3"},
      {"measurement": "bacterial count After irradiation 2", "setting": "Tannerella fosythensis; [13]", "value": "<2.5 × 10^2"},
      {"measurement": "bacterial count After irradiation 1", "setting": "Tannerella fosythensis; [13]", "value": "<5.7 × 10^3"},
      {"measurement": "bacterial count After irradiation 2", "setting": "Tannerella fosythensis; [14]", "value": "<2.5 × 10^2"},
      {"measurement": "bacterial count After irradiation 1", "setting": "Tannerella fosythensis; [14]", "value": "<5.3 × 10^3"}
    ]}
  ]
}
